# Yeast mating assay 2: variants of the scFv Ab-95

From the AlphaSeq antibody data of Engelhart et al. 2022 (doi:10.1038/s41597-022-01779-4), copy in the FLAb collection.

Target: peptide PDVDLGDISGINAS, taken from heptad repeat 2 (HR2) of SARS-CoV-2 spike.

Parent scFv Ab-95: VH joined to VL by three GGGGS repeats. Changes lie in the light chain CDRs alone.
VH: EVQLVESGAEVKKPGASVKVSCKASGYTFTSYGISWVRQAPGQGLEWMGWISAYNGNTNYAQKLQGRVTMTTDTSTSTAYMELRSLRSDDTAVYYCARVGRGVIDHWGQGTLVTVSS
VL: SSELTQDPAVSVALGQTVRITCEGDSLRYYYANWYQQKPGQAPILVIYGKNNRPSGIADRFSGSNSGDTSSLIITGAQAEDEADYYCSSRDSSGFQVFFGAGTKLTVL

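The starting antibody came from a phage panning campaign against this peptide. Variants in AAYL52 differ from the parent at up to three CDR positions; double and triple changes were sampled at random. The assay is AlphaSeq: two haploid yeast populations carry antibody and antigen on their surface. After mating in shaken culture at 30 °C for 16 h, diploids were selected and their barcode pairs sequenced. A regression on co-assayed BCL2-family reference pairs converts the normalised counts of each replicate to an apparent Kd. Each pool was mated in three replicate cultures.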

The parent's light chain CDRs are EGDSLRYYYAN, GKNNRPS, SSRDSSGFQVF; each variant's own CDRs replace them letter for letter. Each Kd is an estimate from the mating assay, the geometric mean of the replicates in which the pair was seen; lower is stronger. Where no diploid with the target was found in any replicate, the entry reads "nd": below detection, most likely a poor binder, though not proof of it. In this assay the parent's reference entry averaged 200 nM; its copy inside this library read 180 nM.

CDR-L1,CDR-L2,CDR-L3,apparent Kd,replicates with signal,control signals
EGDSLRYYYAN,GKNNRPS,SGRDSSGYQVM,130 nM,3/3,1/9
EGDSLRYYYAN,GKNNGPS,SSRDSSGWCVF,180 µM,2/3,4/9
EGDSLRYYYAN,GKNNRPS,SARDSSGFRVD,1.8 µM,3/3,3/9
EGDSLRYYYAN,GKNNEPS,SSRSSSGFQMF,6.9 µM,2/3,1/9
EGYSGRYYYAN,GKNNRPS,SSRDSSGFQVN,57 nM,3/3,0/9
EGDRLRYYYAN,GKPNRPA,SSRDSSGFQVF,nd,0/3,3/9
EGDSLRYYYAN,GKNLRPS,SSRDSSGFQVY,98 nM,3/3,3/9
EGDSLRYYRVN,GKNNRPS,SSRDSSGFNVF,1.7 µM,3/3,4/9
EGDYLFYYYAN,GKNNRPS,SSCDSSGFQVF,13 µM,3/3,5/9
EQDSLHRYYAN,GKNNRPS,SSRDSSGFQVF,4.3 µM,3/3,5/9
EGDHLRYYYAN,GKNNRPS,MSRDSSGFQVC,45 nM,3/3,1/9
EGDSLRYYYAN,GKNNRPS,SSRDSSGFQGW,270 µM,1/3,4/9
EGDILRYYYAN,GKNNFPS,SSRDNSGFQVF,14 µM,2/3,2/9
EGDSLRYYYYN,GKNNRPS,SSMDSSVFQVF,8.9 µM,1/3,3/9
EGDFLRYYYAN,GINNRPS,SSRDSSGFAVF,37 µM,2/3,2/9
EGDSLGYYYAM,GKNNRPS,SSRDSSGFQVH,38 µM,3/3,3/9
EGDSLGYYYAK,GKNNRNS,SSRDSSGFQVF,12 µM,1/3,0/9
EGDSLRYNYAN,GKNWRGS,SSRDSSGFQVF,23 nM,3/3,5/9
EADSLDYYYAN,GKNNRPS,SSRDSSGFQVG,2.9 µM,2/3,0/9
EGDALRIYYAN,GKNNNPS,SSRDSSGFQVF,4.9 µM,3/3,2/9
EGSSLRYYYAN,GKLNRPS,SSRNSSGFQVF,11 µM,1/3,4/9
RGDFLRYTYAN,GKNNRPS,SSRDSSGFQVF,15 nM,3/3,1/9
EGDSYRYYYAN,GKNNRPS,SSRDSSVTQVF,29 µM,2/3,2/9
EGDSLRYYYAN,GKNNRPA,ISRDSSGIQVF,370 nM,3/3,4/9
EGKSLRYYYAN,GKNNRPG,SSRDSSGFQVT,1.5 µM,1/3,0/9
EGDRLRYYYTC,GKNNRPS,SSRDSSGFQVF,440 nM,3/3,4/9
EIDSLHYYYAN,GKNNRPL,SSRDSSGFQVF,1.2 µM,3/3,4/9
EGDSLRYYYAN,GKGNRPS,SSRPSSGVQVF,770 nM,3/3,3/9
EGDSLRYYYAN,DKNNRPS,SSRDSYGFHVF,740 nM,3/3,2/9
EGDSLRYYYAN,GKNNRLS,SSRNTSGFQVF,nd,0/3,1/9
EGDSMRYYYAN,GKNNRPS,SSRDDSGFQVK,1.8 µM,1/3,0/9
EGDSLWYYYAN,GENNRPS,SSRDSSGFGVF,46 nM,3/3,5/9
EGDSLRYYYAN,GKNSRPS,SSRDSKGFIVF,35 µM,1/3,0/9
EGDSLRYPYAN,GKNNRPF,SSRDSSGFQVQ,37 nM,3/3,3/9
EHDSLVYYYAN,GKNNEPS,SSRDSSGFQVF,1.8 µM,3/3,3/9
EGDSLRYYTAN,GKNNRPS,SSQDSSGFQVF,290 nM,3/3,3/9
EGDSLRYCYAN,GFNNRPS,SSRDSSNFQVF,3.6 µM,2/3,2/9
KGDSLFYYYAN,GKNNRPS,SSRDSSGFKVF,1.3 µM,3/3,4/9
EGCSLRYYKAN,GKNNRPS,SSRDMSGFQVF,50 µM,3/3,2/9
EGDSLRQYYAN,GKNNRPS,SNRDSSGFQVF,1.8 µM,3/3,3/9
EGDSLRYYYAN,LMNNRPS,SSRDSSGFQMF,55 µM,2/3,5/9
EGDSLRYYYPN,GKNNRPS,SSRDSSGFQTE,33 µM,2/3,2/9
EGDSLRYYYAN,GKNKRWS,SSRDSSGFQVF,nd,0/3,1/9
EGDSVRYYYAN,GHNNRPS,SSKDSSGFQVF,nd,0/3,4/9
EGDSLRMYYAW,GKNNPPS,SSRDSSGFQVF,4.3 µM,2/3,4/9
EGDSLRYYYAN,GKNQFPS,SSRDSSGFQDF,nd,0/3,2/9
EGDSLRYYYAN,GKNNRPS,SSRTSWGWQVF,47 µM,1/3,1/9
EGDSLRAYYAY,GKNNRPN,SSRDSSGFQVF,8.7 µM,1/3,1/9
EGDSLRYYYAN,GKNARPS,SSRISSGFQNF,6.3 µM,2/3,1/9
EGSSLRYYYAN,GKNNRPS,SSRDSSGIQVF,930 nM,3/3,3/9
EGDSLRYYYAN,WKPNRPS,SSRDSHGFQVF,190 µM,2/3,1/9
ENQQLRYYYAN,GKNNRPS,SSRDSSGFQVF,nd,0/3,3/9
EGDSLRYYWAN,GKNYRPS,SSRDSGGFQVF,1.5 µM,3/3,5/9
GGDSLRYYYAN,GKNNRPS,HSRDSSGFSVF,130 nM,3/3,3/9
EGDHLRYYYKN,GKNNPPS,SSRDSSGFQVF,18 µM,1/3,3/9
EGDSLRYPYAN,HKNNRPS,VSRDSSGFQVF,3.9 µM,3/3,1/9
EGDSPRYYYAN,HKNDRPS,SSRDSSGFQVF,3.0 µM,2/3,3/9
EGDSLSYYYAN,GKNNRPS,SSRTSSYFQVF,6.6 µM,2/3,4/9
EGLSLRGSYAN,GKNNRPS,SSRDSSGFQVF,11 nM,3/3,3/9
EGDSLRYYYAN,GKNNRPS,GSRHSSGFQCF,130 nM,3/3,4/9
EGDSLRHYYAW,GKNNRPS,SSRDSSGFQVA,nd,0/3,2/9
PGDSMAYYYAN,GKNNRPS,SSRDSSGFQVF,7.5 µM,2/3,2/9
EGDSLRYYYAN,GKNNRWS,LSRGSSGFQVF,nd,0/3,1/9
EGISKRYYYAN,GKNNRPS,SSRDSSGRQVF,1.8 µM,3/3,2/9
EGDSLRYYYAN,GKNNRPV,SSRDSWGFQTF,nd,0/3,0/9

The opening 7 entries, copied out:

CDR-L1	CDR-L2	CDR-L3	apparent Kd	replicates with signal	control signals
EGDSLRYYYAN	GKNNRPS	SGRDSSGYQVM	130 nM	3/3	1/9
EGDSLRYYYAN	GKNNGPS	SSRDSSGWCVF	180 µM	2/3	4/9
EGDSLRYYYAN	GKNNRPS	SARDSSGFRVD	1.8 µM	3/3	3/9
EGDSLRYYYAN	GKNNEPS	SSRSSSGFQMF	6.9 µM	2/3	1/9
EGYSGRYYYAN	GKNNRPS	SSRDSSGFQVN	57 nM	3/3	0/9
EGDRLRYYYAN	GKPNRPA	SSRDSSGFQVF	nd	0/3	3/9
EGDSLRYYYAN	GKNLRPS	SSRDSSGFQVY	98 nM	3/3	3/9

As a blank, each scFv also met three strains without target: over library AAYL52, 28% of these pairings were detected, typically at 8.2 µM and seldom below 800 nM. For each scFv, signals with the empty controls are counted beside the result.